Molecular target: rat mGlu5 (Rattus norvegicus, UniProt P31424)
Assay: Calcium mobilization mGlu5 assay
Type: cell-based
Details: for mGlu5 activity in words: highest concentration tested 30 μM

Amino acid sequences for entries named in this document (tags omitted). Residues count along the entry.
UniProt P31424, 21-1203: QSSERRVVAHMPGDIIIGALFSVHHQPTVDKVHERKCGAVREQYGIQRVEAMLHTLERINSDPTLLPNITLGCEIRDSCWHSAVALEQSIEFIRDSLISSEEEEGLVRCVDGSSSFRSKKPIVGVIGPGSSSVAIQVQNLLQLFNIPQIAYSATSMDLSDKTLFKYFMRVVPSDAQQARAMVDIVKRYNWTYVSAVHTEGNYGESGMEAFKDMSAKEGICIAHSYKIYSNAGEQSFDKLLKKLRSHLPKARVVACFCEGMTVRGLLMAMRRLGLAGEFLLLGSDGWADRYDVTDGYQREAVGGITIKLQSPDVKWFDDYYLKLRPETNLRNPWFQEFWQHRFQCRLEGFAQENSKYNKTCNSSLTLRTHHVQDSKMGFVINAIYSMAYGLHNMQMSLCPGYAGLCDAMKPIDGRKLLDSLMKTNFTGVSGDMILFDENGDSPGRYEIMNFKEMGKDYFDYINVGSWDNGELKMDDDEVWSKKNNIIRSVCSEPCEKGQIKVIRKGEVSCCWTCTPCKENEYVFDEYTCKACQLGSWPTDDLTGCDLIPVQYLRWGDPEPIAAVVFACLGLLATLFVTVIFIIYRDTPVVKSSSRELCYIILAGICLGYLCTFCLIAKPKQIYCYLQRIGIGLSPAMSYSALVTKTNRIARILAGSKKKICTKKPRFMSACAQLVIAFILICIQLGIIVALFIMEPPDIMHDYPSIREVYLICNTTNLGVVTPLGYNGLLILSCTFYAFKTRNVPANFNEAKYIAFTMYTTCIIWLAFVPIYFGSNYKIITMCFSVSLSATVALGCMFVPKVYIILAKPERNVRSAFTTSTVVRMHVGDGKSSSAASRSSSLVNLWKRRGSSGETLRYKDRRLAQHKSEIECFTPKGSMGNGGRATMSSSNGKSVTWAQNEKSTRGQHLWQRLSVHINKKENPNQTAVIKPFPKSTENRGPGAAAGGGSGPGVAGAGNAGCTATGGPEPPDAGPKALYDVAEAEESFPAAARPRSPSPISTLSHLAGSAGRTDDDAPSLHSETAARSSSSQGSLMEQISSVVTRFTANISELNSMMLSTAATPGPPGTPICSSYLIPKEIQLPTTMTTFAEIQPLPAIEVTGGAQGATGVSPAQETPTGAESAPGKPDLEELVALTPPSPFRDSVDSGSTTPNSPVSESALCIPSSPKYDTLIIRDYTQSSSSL

| SMILES | mGlu5 activity in words | also measured |
| --- | --- | --- |
| Cc1nsc(NC(=O)c2cccc(Oc3cccnc3)c2)n1 [Compound 19] | inactive |  |
| Cc1cc(Oc2cncnc2)cc(C(=O)Nc2ccc(F)cn2)c1 [Compound 29] |  | fold more potent than trifluoromethyl analog 29 (mGlu5 potency vs trifluoromethyl analog): more than 250 fold |
| Cc1nc(NC(=O)c2cc(F)cc(Oc3cncnc3)c2)sc1F [Compound 34] |  | fold loss of potency compared to 24 (mGlu5 potency vs 24): 2 fold |
| Cc1nc(NC(=O)c2cc(Cl)cc(Oc3cncnc3)c2)ccc1F [Compound 72] |  | fold less potent than 55 (mGlu5 potency vs 55): ≤ 3 fold |

Continued, in another order:

| mGlu5 activity in words | SMILES | also measured |
| --- | --- | --- |
| only weakly active | Cc1cc(NC(=O)c2cccc(Oc3cccnc3)c2)ccn1 [Compound 13] |  |
| inactive | O=C(Nc1nc(C(F)(F)F)cs1)c1cccc(Oc2cccnc2)c1 [Compound 20] |  |
| inactive | Cc1nc(NC(=O)c2cccc(Oc3cccnc3)c2)nn1C [Compound 21] | IC50 (read-out: mGlu5 IC50, HEK293A cells expressing rat mGlu5, EC80 glutamate): > 30 µM |
